The target of the assay is biotinylated recombinant human DCC (human) (UniProt P43146). The assay can be described thus: AVEXIS, prey on bait DCC; dark = Binding.

Turning to “human Netrin1, recombinant AVEXIS protein (biotinylated when immobilised) (from UniProt O95631 25-604) (ligand)”, the A486nm is 0.299.

Source of the values: patent US20160347802A1.
